The source of these data is EP4088722A1, “PHARMACEUTICAL COMPOSITIONS, USES THEREOF AND METHODS FOR TREATMENT OF GENETIC DISEASES CAUSED BY INTRONIC SPLICE-ACCEPTOR SITE MUTATIONS” (priority 2021, dated 2022).

Assay [1] deals with AGA minigene construct without luciferase (c.128-2A>G). In kind it is cell-based, human. The following applies: 25 µM luteolin or 50 µM kinetin, 24 h, qPCR-based minigene assay. The procedure:
For qPCRs, total RNA was isolated with peqGOLD TriFast™ (VWR, Darmstadt, Germany) and included a DNAse step. Total RNA (1-3 µg) were reverse transcribed with 150 fmol oligo(dT) primers and M-MuLV reverse transcriptase (NEB, Frankfurt, Germany) in a total volume of 45 µL. Real-time quantitative PCRs were performed using the CFX Connect Real-Time PCR Detection System (Bio-Rad, Munich, Germany). Annealing temperature was 60°C for all primers. The reactions were done as duplicates with 0.8 µL cDNA in a total volume of 10 µL using iTaq-TMUniversal SYBR Green Supermix (Bio-Rad). PCR products were quantified with the ACt-method. For normalization, the mean of the reference genes B2M, Rpl13a, Ywhaz and TBP was used. Table 2. Sequences of primers used for the quantitative real-time PCR.
RNA was isolated from the cells, reverse transcribed to cDNA, and a qRT-PCR with a fwd primer residing in exon 2 and a reverse primer in the plasmid vector (3'-untranslated region of the resulting RNA) was performed. Thus, amplification of a PCR product of 271 bp is only observed when both exons 2 and 3 are present in the mRNA.
For orientation: Real-time PCR tracks product formation cycle by cycle.

In assay [2] the test system is TPP1 minigene with the mutation c.509-1G>C. Description: TPP1 minigene luciferase splicing assay in HEK293T cells. In kind it is cell-based, human. The following applies: for splicing of the TPP1 minigene / variant (summary statement): overall statement in the description; for luciferase signal: 24 h. An excerpt:
Due to the encouraging data obtained with our AGU splice-site variant, we constructed a TPP1 luciferase minigene that contains exons 5, 6 and 7 together with the introns 5 and 6 (Figure 11a) and the firefly luciferase coding region. The splice-site variant -1G>C was introduced at the end of intron 5. Upon exclusion of exon 6, which is the most likely alteration, no luciferase activity is observed due to the frameshift and premature stop codon. Other altered splicing products are possible, but they would not result in a luciferase signal. If the splicing can be corrected, and exon 6 is included, luciferase activity can be measured (Figure 11a).

In assay [3] the test system is AGA minigene containing the splice variant (c.128-2A>G). The assay is described as follows: AGA minigene luciferase splicing assay in AGA knockout HEK293T cells. The following applies: 24 h.

With `c1coc(CNc2ncnc3[nH]cnc23)c1` [kinetin], in assay [1], the “amount of AGA mRNA products containing exon 2” value is “increased the amount of AGA mRNA products containing exon 2”. In addition, the “splicing of the TPP1 minigene / variant (summary statement)” value in assay [2] is reported as “no systematic positive effect”. For the same compound, the luciferase activity entry in assay [3] (100 µM kinetin) was “significant (about two-fold) increase in luciferase activity”.
Regarding `Cn1c(=O)c2[nH]cnc2n(C)c1=O` [theophylline, 1,3-dimethylxanthine], the luciferase signal entry in assay [2] (7.5 mM) is reported as “Significant increase of luciferase signal”.
`CC(=O)CCCCn1c(=O)c2c(ncn2C)n(C)c1=O` [pentoxifylline, 3,7-dimethyl-1-(5-oxohexyl) xanthine]: the luciferase signal entry in assay [2] (7.5 mM) is “Significant increase of luciferase signal”.
Regarding `Cn1c(=O)c2c(ncn2C)n(C)c1=O` [caffeine, 1,3,7-trimethylxanthine], the luciferase signal result in assay [2] (7.5 mM) is on record as “Significant increase of luciferase signal”. Moreover, the luciferase activity entry in assay [3] (four concentrations 1 mM - 7.5 mM, compared to untreated cells) is “dose dependent, significant (at 5 mM and 7.5 mM) increase in the luciferase activity”.
On to `O=c1cc(-c2ccc(O)c(O)c2)oc2cc(O)cc(O)c12` [luteolin, 3',4',5,7-tetrahydroxyflavone], for which the “amount of AGA mRNA products containing exon 2” value in assay [1] was “increased the amount of AGA mRNA products containing exon 2”. Besides, the luciferase signal entry in assay [2] (25 µM) was “Significant increase of luciferase signal”.
Consider `Cn1c(=O)c2c(ncn2CC2OCCO2)n(C)c1=O` [doxofylline, 7-(1,3-dioxolan-2-ylmethyl)-1,3-dimethylpurine-2,6-dione], for which, in assay [2], the “splicing of the TPP1 minigene / variant (summary statement)” value was “consistently failed to exert any significant effects”.
